Sampled rows, rich in hits. Any-hit rate of the full collection: about 16%.
DT40 TDP1 no CPT = qHTS for Inhibitors of human tyrosyl-DNA phosphodiesterase 1 (TDP1): qHTS in cells in absence of CPT | AID 686978, 2013 | DT40 Tdp1-/- hTDP1 cells, no CPT, ATP luminescence, 48 h | Potency, µM (highest dose often 46.2 µM), without a hit: at the top dose activity change, negative = growth inhibition, actives largely listed as inhibitors | 420,000 tested, 15% active; also: potency is read from the fitted curve at half-maximal effect; % is scaled to controls: 0 for no effect and ±100 for the full control effect; nearly all actives have a fitted effect of over 55% in size
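Chicken DT40 Tdp1-/- cells stably complemented with human TDP1 were seeded at 400 cells/well with DMSO in place of 20 nM camptothecin. After compound pinning, cells grew at least 48 hr at 37 °C; viability read by CellTiter-Glo luminescence.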
TDP1 inh = blocks human tyrosyl-DNA phosphodiesterase 1; recombinant TDP1, AlphaScreen DNA substrate cleavage; Q9NUW8; 350,000 tested, 0.28% active; Potency, µM (top dose mostly 130 µM), for inactives: at the top dose activity change, negative = inhibition, actives largely listed as inhibitors; also: potency is read from the fitted curve at half-maximal effect; % is scaled to controls: 0 for no effect and ±100 for the full control effect; nearly all actives have a fitted effect of over 40% in size
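Signal: AlphaScreen proximity between streptavidin donor and anti-FITC acceptor beads on intact substrate. Reaction: Tdp1 1 nM, substrate 15 nM final, 5 min RT after 15 min compound preincubation.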
uPA surface inh = inhibitors of cell surface uPA generation. 330,000 tested, 0.31% active. AID 540303. Potency, µM (doses to about 38.3 µM), for inactives: at the top dose activity change, negative = inhibition, usual class: inhibitors. cell surface uPA generation assay, qHTS; active = well fitted inhibition curve with a large enough effect; inconclusive = small, poorly fitted or top-dose-only effect; inactive = no such curve, though single readings can be large or run the other way; tested in mouse RAW 264.7 cells; also: potency is read from the fitted curve at half-maximal effect; % is scaled to controls: 0 for no effect and ±100 for the full control effect; nearly all actives have a fitted effect of over 55% in size
DT40 TDP1 CPT = DT40-hTDP1 cell growth loss with CPT; chicken DT40 Tdp1-/-;hTDP1 cells + 20 nM CPT, ATP luminescence, 48 h; Potency, µM (highest dose often 46.2 µM), inactives show at the highest dose activity change, negative = growth inhibition, actives largely listed as inhibitors; 420,000 tested, 12% active; AID 686979; also: potency is read from the fitted curve at half-maximal effect; % is scaled to controls: 0 for no effect and ±100 for the full control effect; nearly all actives have a fitted effect of over 55% in size
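Chicken DT40 Tdp1-/- cells stably complemented with human TDP1 were seeded at 400 cells/well in medium containing 20 nM camptothecin, exposed to pin-transferred compounds, and grown at 37 °C for at least 48 hr. Viability was read as ATP luminescence.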
miR-21 reporter = miR-21 reporter, rising signal | HeLa miR-21 FLuc reporter, luciferase, 48 h | Potency, µM (top dose mostly 38.3 µM), inactives show at the top dose reporter change, positive = more light | 340,000 tested, under 10 active | AID 2288; active = well fitted rising curve with a large enough effect; inconclusive = small, poorly fitted or top-dose-only effect; inactive = no such curve, though single readings can be large or run the other way;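 further: % of control where 0% means no effect; miR-21 action dims this reporter so a rising signal means less miR-21 action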
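HeLa cells stably expressing CMV-driven firefly luciferase with a downstream miR-21 binding sequence, endogenously expressing miR-21, were treated with titrations (up to about 40uM final) for 48 hours at 37 degree Celsius. Luciferase luminescence was read after lysis.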
Numbers without * were called inactive. Unless noted, calls follow the shape of the dose curve; as a rule, active = well fitted curve in the direction sought with a large enough effect; inconclusive = small, poorly fitted or top-dose-only effect, or another doubt; inactive = no such curve, though single readings can be large; an effect the other way counts as inactive or inconclusive.

`Cc1ccc(O)c(NC(=O)Cc2ccc3ccccc3c2)c1` gave DT40 TDP1 no CPT 8%, TDP1 inh 4%, uPA surface inh -10%, DT40 TDP1 CPT 5% and miR-21 reporter -13%.
Cn1ncc(Cl)c1C(=O)NCc1cc(C(C)(C)C)n[nH]1 was read as DT40 TDP1 no CPT 18µM*, TDP1 inh 2%, uPA surface inh 1%, DT40 TDP1 CPT inconclusive and miR-21 reporter 1%.
CCc1ccccc1NC1=NCC(=O)N1Cc1ccccc1 was read as DT40 TDP1 no CPT inconclusive, TDP1 inh 0%, uPA surface inh 2%, DT40 TDP1 CPT inconclusive and miR-21 reporter -5%.
Screening CC(C)(C)OC(=O)C[C@H]1C/C=C\C[C@H](CC(=O)N(CCO)Cc2ccccc2)C(=O)NCCOC1=O returned DT40 TDP1 no CPT inconclusive, TDP1 inh -3%, uPA surface inh 0% and DT40 TDP1 CPT inconclusive.
For O=C(C1CC(=O)N(c2ccc(F)cc2)C1)N1CCOCC1 (centres undefined) the results were DT40 TDP1 no CPT 2%, TDP1 inh 2%, uPA surface inh 5%, DT40 TDP1 CPT -1% and miR-21 reporter -1%.
Screening CN(CC(=O)Nc1cccc(S(=O)(=O)N2CCOCC2)c1)CC(=O)Nc1ccc(Cl)c(C(F)(F)F)c1 returned DT40 TDP1 no CPT 7.3µM*, uPA surface inh inconclusive and DT40 TDP1 CPT 15µM*.
For Cn1cc(S(=O)(=O)N2CCOCC2)cc1C(=O)Nc1ccc(Cl)c(C(F)(F)F)c1 the results were DT40 TDP1 no CPT 23µM*, TDP1 inh 1%, DT40 TDP1 CPT inconclusive and miR-21 reporter 13%.
`Cc1ccc(C)c(NC(=O)c2cc(S(=O)(=O)N3CCOCC3)cn2C)c1` gave DT40 TDP1 no CPT -24%, uPA surface inh 2%, DT40 TDP1 CPT 15µM* and miR-21 reporter 1%.
O=C(COc1ccc2c(c1)CCC2)Nc1ccccn1 was read as DT40 TDP1 no CPT -2%, TDP1 inh -5%, uPA surface inh -1% and DT40 TDP1 CPT -9%.
For COc1ccc(CN2CCC[C@]3(N[C@H](c4ccccc4)[C@@H]4C(=O)N(C)C(=O)[C@@H]43)C2=O)cc1 the results were DT40 TDP1 no CPT -25% and DT40 TDP1 CPT 4%.
O=C1[C@H]2[C@@H](c3ccccc3)N[C@]3(CCCN(Cc4ccc(Br)cc4)C3=O)[C@H]2C(=O)N1Cc1ccccc1 was read as DT40 TDP1 no CPT 23µM* and DT40 TDP1 CPT inconclusive.
For O=C1[C@H]2[C@@H](c3ccccc3)N[C@]3(CCCN(Cc4ccc(Cl)cc4)C3=O)[C@H]2C(=O)N1Cc1ccccc1 the results were DT40 TDP1 no CPT 8.2µM* and DT40 TDP1 CPT 23µM*.
Screening Cc1ccc([C@H]2N[C@]3(CCCN(Cc4ccc(Br)cc4)C3=O)[C@H]3C(=O)N(Cc4ccccc4)C(=O)[C@@H]23)cc1 returned DT40 TDP1 no CPT 29µM* and DT40 TDP1 CPT 21µM*.
`CCN1C(=O)[C@H]2[C@@H](c3ccc(C)cc3)N[C@]3(CCCN(Cc4ccccc4)C3=O)[C@H]2C1=O` gave DT40 TDP1 no CPT inconclusive and DT40 TDP1 CPT -16%.
Screening N#Cc1ccc(C23CC4(C2)[C@H](CN(CC2CCCCC2)[C@@H]4c2ccccc2)C3c2ccc(Cl)nc2)cc1 (some centres undefined) returned DT40 TDP1 no CPT 15µM*, TDP1 inh 10%, uPA surface inh -9%, DT40 TDP1 CPT 13µM* and miR-21 reporter 2%.
Screening N#Cc1ccc(C23CC4(C2)[C@H](CN(CC2CCCCC2)[C@@H]4c2ccccc2)C3c2ccccc2)cc1 (some centres undefined) returned DT40 TDP1 no CPT 16µM*, TDP1 inh 8%, uPA surface inh 17%, DT40 TDP1 CPT inconclusive and miR-21 reporter -12%.
`FC(F)(F)c1ccc(C2[C@H]3CN(CC4CCCCC4)[C@H](c4ccccc4)C34CC2(c2ccccc2)C4)cc1` (some centres undefined) gave TDP1 inh 8%.
Screening CC(C)(C)OC(=O)CN1C(=O)NC2(CCCc3ccccc32)C1=O (centres undefined) returned DT40 TDP1 no CPT -15%, uPA surface inh -8%, DT40 TDP1 CPT inconclusive and miR-21 reporter 2%.
Cc1ccc(CC(=O)NO)cc1 was read as DT40 TDP1 no CPT -16% and DT40 TDP1 CPT inconclusive.
For COc1ccc(N=Nc2nc3cc(Br)c(Br)cc3n2C)c(OC)c1 the results were DT40 TDP1 no CPT inconclusive, TDP1 inh 5%, uPA surface inh -3%, DT40 TDP1 CPT inconclusive and miR-21 reporter -49%.
`O=C(CN1CCOCC1)N/N=C/c1ccc(-c2ccc(C(=O)O)cc2)o1` gave DT40 TDP1 no CPT -16%, TDP1 inh 32µM*, uPA surface inh -1%, DT40 TDP1 CPT 13% and miR-21 reporter -1%.
For O=C(CCN1CCN(c2ccccc2)CC1)N/N=C/c1ccc(O)c(O)c1O the results were DT40 TDP1 no CPT inconclusive, TDP1 inh 0%, uPA surface inh 15%, DT40 TDP1 CPT inconclusive and miR-21 reporter -2%.
O=C(CCN1CCN(c2ccccc2)CC1)N/N=C/c1ccc([N+](=O)[O-])o1 was read as DT40 TDP1 no CPT inconclusive, TDP1 inh 2%, uPA surface inh -11%, DT40 TDP1 CPT 10µM* and miR-21 reporter 22%.
Screening O=C(CN1CCOCC1)NN=Cc1ccc([N+](=O)[O-])o1 returned DT40 TDP1 no CPT inconclusive and DT40 TDP1 CPT 21µM*.
For O=C(NN=C1CCCC1)c1ccc(O)cc1O the results were DT40 TDP1 no CPT -1%, TDP1 inh 0%, uPA surface inh inconclusive, DT40 TDP1 CPT 6% and miR-21 reporter -25%.
For COc1cccc(C(=O)Nc2cccc(-c3nc4ncccn4c3C)c2)c1 the results were DT40 TDP1 no CPT inconclusive, TDP1 inh 3%, DT40 TDP1 CPT inconclusive and miR-21 reporter -11%.
Cc1ccc(CCNC(=O)CCSCc2ccccc2F)cc1 was read as DT40 TDP1 no CPT -10%, TDP1 inh 5%, DT40 TDP1 CPT -5% and miR-21 reporter -2%.
For COc1cc(/C=C(\C#N)c2nc(-c3cc4ccccc4oc3=O)cs2)ccc1O the results were DT40 TDP1 no CPT 18µM*, TDP1 inh 0%, uPA surface inh -2%, DT40 TDP1 CPT 18µM* and miR-21 reporter -5%.
CC1CCC(=C(C#N)c2nc(-c3cc4ccccc4oc3=O)cs2)CC1 (centres undefined) was read as DT40 TDP1 no CPT 21µM*, TDP1 inh 0%, uPA surface inh 7%, DT40 TDP1 CPT inconclusive and miR-21 reporter -27%.

At a glance, part of the list above.
Screening O=C(CN1CCOCC1)NN=Cc1ccc([N+](=O)[O-])o1 returned DT40 TDP1 no CPT inconclusive and DT40 TDP1 CPT 21µM*.
For O=C(NN=C1CCCC1)c1ccc(O)cc1O the results were DT40 TDP1 no CPT -1%, TDP1 inh 0%, uPA surface inh inconclusive, DT40 TDP1 CPT 6% and miR-21 reporter -25%.
For COc1cccc(C(=O)Nc2cccc(-c3nc4ncccn4c3C)c2)c1 the results were DT40 TDP1 no CPT inconclusive, TDP1 inh 3%, DT40 TDP1 CPT inconclusive and miR-21 reporter -11%.
Cc1ccc(CCNC(=O)CCSCc2ccccc2F)cc1 was read as DT40 TDP1 no CPT -10%, TDP1 inh 5%, DT40 TDP1 CPT -5% and miR-21 reporter -2%.

Compound activity: PubChem, National Center for Advancing Translational Sciences (NCATS)
